Results from patent US20060046968A1, “Prodrug substituted benzoxazoles as estrogenic agents” (priority 2004, published 2006).

What was measured:
Lewis rats = assay: Lewis rat adjuvant-induced arthritis, treatment protocol: tarsal joint histology (synovitis, Mankin); type: in vivo; settings: 50 mg/kg, tarsal joints
Experimental: Treatment test procedure: Thirty rats are injected intradermally with 0.1 mL of Freund's Adjuvant-Complete at the base of the tail. The animals are randomized to four groups, each group containing six rats. Each day, the groups receive vehicle (50% DMSO (JT Baker, Phillipsburg, N.J.)/1× Dulbecco's phosphate saline (GibcoBRL, Grand Island, N.Y.)) or test compound (administered subcutaneously).
All rats began treatment on Day 8 after adjuvant injection.

[1] = test system: Sexually immature 129 SvE mice; assay: Mouse uterotrophic test procedure (Procedure 2); type: in vivo; settings: compound 50 mg/kg s.c., days 22-25

SMILES	Synovial Structure (0-3), mean ± SD (Lewis rats)	mean uterine weight ± SEM [1]
C=Cc1cc(O)cc2nc(-c3ccc(O)c(F)c3)oc12 [Example 24, 2-(3-FLUORO-4-HYDROXYPH ENYL)-7-VI NYL-1,3-BENZOXAZOL-5-OL]	1.42 ± 0.49	–
C=CCc1cc(O)cc2nc(-c3ccc(O)c(F)c3)oc12 [Example 34]	–	10.3 ± 0.7 mg and 10.3 ± 0.69 mg

Values joined by “and” are separate entries in the source; they are usually repeats but may differ in a detail not shown here. Equal values may be shown once.
